Assay results reported in PubChem BioAssay AID903 (National Center for Advancing Translational Sciences (NCATS), 2007).
Only a part is listed here, and it is no random draw. Results filed as inconclusive are left out. The source made the active and inactive calls. Calls follow the shape of the dose curve; as a rule, active = well fitted cell-killing curve with a large enough effect; inconclusive = small, poorly fitted or top-dose-only effect; inactive = no such curve, though single readings can be large or run the other way.

experiment: qHTS Screen for Compounds that Selectively Target Cancer Cells with p53 Mutations: Cytotoxicity of p53 Null Cells at the Permissive Temperature; conditions: H1299-neo p53 null cells, ATP luminescence, 24 h, 32C; at 46.1 µM (top of the series);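 also: 0% = DMSO only and -100% = full killing by 100 µM tamoxifen; nearly all actives have a fitted effect of over 55% in size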
From the text: NIH Chemical Genomics Center [NCGC] NIH Molecular Libraries Screening Centers Network [MLSCN] MLSCN Grant: 1 X01 MH079844-01 Assay Submitter (PI): Dr. SUN, YI, University of Michigan NCGC Assay Overview: Synthetic Lethal Screen for Compounds to Kill Cancer Cells with p53 Mutation. Tumor suppressor gene p53 serves as a major cellular barrier against tumorigenesis. […] The goal of this screening is to identify small molecule probes that selectively kill cancer cells with mutations in p53. This screening was carried out using two lines of H1299 lung cancer cells. The H1299-p53 A138V line express a temperature sensitive p53 mutant (p53ts) in which the mutant p53 protein (A138V) is in the mutant confirmation when grown at 39C (the nonpermissive temperature) and in the wild type conformation when grown at 32C (the permissive temperature). A H1299-neo line (p53 null) grown at both 39C and 32C were used as counter-screens to filter out false positive associated with temperature shifting. The small molecular compounds that selectively target mutant p53-containing cancer cells were selected as candidate probes for further study. A cytotoxicity assay based on the measurement of ATP contents in cells was used in this screen. Concentration-responses of all the compounds in the library collection were determined in qHTS using the cell lines and temperature conditions as above.
NCGC Assay Protocol Summary: Both the H1299-p53A138V and H1299-neo cell lines were provided by Dr.Yi Sun, a PI at the University Michigan. The cells were maintained and cultured at 37C. The resuspended frozen cells were used to plate the cells in the 1536-well assay plates at a density of 600 cells per well in 5 ul medium. The assay plates with the cells were incubated at 37C for 16 to 30 hours before the experiments. The library compounds in DMSO solution were added to the cells in assay plates and incubated 24 hours at 39C (for mutant p53 conformation) or 32C (for normal p53 conformation as control). An ATP_lite assay kit (PerkinElmer) was used to determine the cell viability. Tomaxifen (100uM) was used as the positive control for cell killing. Data were normalized to the controls for basal activity (DMSO only) and 100% killing (100uM tamoxifen). AC50 values were determined from concentration-response data modeled with the standard Hill equation. P53 assay protocol: 1. Reagent; 5 uL H1299-p53A138V or H1299-neo cell cells/well 2. Time; overnight; 37C incubation 3. Compounds; 23 nL; 5.9 nM to 46 uM 4. Controls; 23 nL; Tamoxifen 100 uM 5. Time; 24 hr; 32C incubation 6. Reagent; 3 uL; ATP_Lite reagent 7. Time; 20 min; Room Temperature 8. Detection; Luminescence; Viewlux plate reader Keywords: p53, synthetic lethal, cancer, cell viability, cytotoxicity, H1299 cell line, luminescence, MLSMR, MLSCN, NIH Roadmap, qHTS, NCGC

SMILES | activity change, negative = cytotoxicity
CN(C)C1(CNC(=O)c2ccc(C(C)(C)C)cc2)CCCCC1 | inactive: -8.75%
CC(C)(C)c1ccc(C(=O)NCC2(N3CCOCC3)CCCCC2)cc1 | inactive: -8.99%
Cc1ccccc1C(=O)NCC1(N(C)C)CCCCC1 | inactive: -2.79%
COc1cc(C(=O)NCC2(N3CCOCC3)CCCCC2)cc(OC)c1OC | inactive: -3.06%
O=C(NCC1(N2CCOCC2)CCCCC1)c1ccc([N+](=O)[O-])cc1 | inactive: -10.9%
O=C(NCC1(N2CCOCC2)CCCCC1)c1ccccc1[N+](=O)[O-] | inactive: -4.68%
O=C(NCC1(N2CCOCC2)CCCCC1)c1ccccc1 | inactive: -3.5%
CCOc1ccc(C(=O)NCC2(N3CCOCC3)CCCCC2)cc1 | inactive: -8.99%
CCCOc1cccc(C(=O)NCC2(N3CCOCC3)CCCCC2)c1 | inactive: 3.25%
CCCCOc1ccccc1C(=O)NCC1(N2CCOCC2)CCCCC1 | inactive: -13%
O=C(NCC1(N2CCOCC2)CCCCC1)c1ccccc1Br | inactive: -2.15%
COc1ccccc1C(=O)NCC1(N2CCOCC2)CCCCC1 | inactive: -6.56%
O=C(NCC1(N2CCOCC2)CCCCC1)c1ccc(Cl)cc1 | inactive: -1.77%
